Test results taken from patent US20230234957A1, “PROTEIN TAG TO INDUCE LIGAND DEPENDENT DEGRADATION OF PROTEIN/PROTEIN-FUSIONS” (DANA-FARBER CANCER INSTITUTE, INC., priority 2020, published 2023).

Tests used:
[1] = Pharmacokinetic study with IV dosing; conditions: IV 2 mg/kg, male C57BL/6 mice
[2] = Pharmacokinetic study with IP dosing; conditions: IP 10 mg/kg, male C57BL/6 mice

Structure (SMILES) | T1/2 [1] | T1/2 [2]
COc1ccc2c(c1)C(c1ccc(Cl)cc1)=N[C@@H]([C@@H](C)C(=O)NCCCCCNC(=O)COc1cccc3c1C(=O)N(C1CCC(=O)NC1=O)C3=O)c1nnc(C)n1-2 (stereo partly drawn) [Compound 1, (2R)-2-((4S)-6-(4-chlorophenyl)-8-methoxy-1-methyl-4H-benzo[f][1,2,4]triazolo [4,3-a][1,4]diazepin-4-yl)-N-(5-(2-((2-(2,6-dioxopiperidin-3-yl)-1,3-dioxoisoindolin-4-yl)oxy)acetamido)pentyl)propanamide] | 30.9 min | 43.3 min
COc1ccc2c(c1)C(c1ccc(Cl)cc1)=N[C@@H]([C@@H](C)C(=O)NCCOCCOCCNC(=O)COc1cccc3c1C(=O)N(C1CCC(=O)NC1=O)C3=O)c1nnc(C)n1-2 (stereo partly drawn) [Compound 5, (2R)-2-((4S)-6-(4-chlorophenyl)-8-methoxy-1-methyl-4H-benzo[f][1,2,4]triazolo [4,3-α][1,4]diazepin-4-yl)-N-(2-(2-(2-(2-((2-(2,6-dioxopiperidin-3-yl)-1,3-dioxoisoindolin-4-yl)oxy)acetamido)ethoxy)ethoxy)ethyl) propanamide] | 22 min | 37.4 min
